Biological target: Protein farnesyltransferase subunit beta/geranylgeranyltransferase type-1 subunit alpha (Rattus norvegicus, UniProt Q04631+Q02293)
Assay: In vitro inhibition of Farnesyltransferase (FT) by using FT [3H]-SPA kit.

The chains behind the UniProt entries cited, without tags or fusion partners.
UniProt Q02293, whole entry, looked up: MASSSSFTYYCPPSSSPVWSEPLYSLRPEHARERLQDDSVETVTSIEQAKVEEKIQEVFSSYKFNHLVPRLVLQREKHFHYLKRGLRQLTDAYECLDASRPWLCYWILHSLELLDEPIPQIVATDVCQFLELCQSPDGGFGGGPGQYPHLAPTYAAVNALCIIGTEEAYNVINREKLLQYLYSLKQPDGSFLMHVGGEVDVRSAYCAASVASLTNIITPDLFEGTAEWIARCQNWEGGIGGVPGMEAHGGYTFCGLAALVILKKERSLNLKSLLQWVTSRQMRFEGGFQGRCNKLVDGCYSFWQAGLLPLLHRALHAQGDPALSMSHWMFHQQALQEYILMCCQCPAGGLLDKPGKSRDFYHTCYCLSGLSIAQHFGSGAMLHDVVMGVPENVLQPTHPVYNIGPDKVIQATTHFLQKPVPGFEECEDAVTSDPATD

## O=C(NNc1ccc([N+](=O)[O-])cc1[N+](=O)[O-])c1cc([N+](=O)[O-])cc2c1-c1ccc([N+](=O)[O-])cc1C2=O
  IC50: 110 µM
